Source: ChEMBL document CHEMBL1150411, “4-(Phenylaminomethylene)isoquinoline-1,3(2H,4H)-diones as potent and selective inhibitors of the cyclin-dependent kinase 4 (CDK4)” (J Med Chem, 2008)

Experiments:
Sf9 [1] = experiment: Selectivity for CDK4/cyclin D1 expressed in Sf9 cells-baculovirus system over CDK2/cyclin E expressed in Sf9 cells-baculovirus system
Sf9 [2] = experiment: Selectivity for CDK4/cyclin D1 expressed in Sf9 cells-baculovirus system over CDK1/Cyclin B1 expressed in Sf9 cells-baculovirus system

Structure (SMILES)	Selectivity ratio (Sf9 [1])	Selectivity ratio (Sf9 [2])
CN1CCN(c2ccc(N/C=C3\C(=O)NC(=O)c4ccc(-c5ccsc5)cc43)cc2)CC1	500	500
O=C1NC(=O)c2ccc(-n3cccc3)cc2/C1=C/Nc1ccc(CN2CCCCC2)cc1	> 357	> 357
